{"source": "patent US7517870B2", "about": "“Use of compounds that interfere with the hedgehog signaling pathway for the manufacture of a medicament for preventing, inhibiting, and/or reversing ocular diseases related with ocular neovascularization” (Fondazione Telethon, priority 2004, dated 2009)", "origin": "cited, not measured here", "system": "breast cancer cells", "details": "via the Hh signalling pathway; cited from earlier work", "data": [{"smiles": "CC1=C2C[C@H]3[C@@H](CC=C4C[C@@H](O)CC[C@@]43C)[C@@H]2CC[C@]12O[C@@H]1C[C@H](C)CN[C@H]1[C@H]2C", "note": "[cyclopamine]", "values": [{"measurement": "growth of breast cancer cells", "result": "blocks the growth of breast cancer cells"}]}]}
